Measurements as given in US11564964B2, “Compositions and methods for the treatment of coronavirus infection” (priority 2021, dated 2023).

Assay: MTT cytotoxicity assay
Assay type: cell-based
Details: African green monkey, Vero E6 cells, read-out: cytotoxicity IC50 against Vero E6 cells
Procedure: Vero-E6 cells with the previously reported (MTT) method^34 were used to test the cytotoxic activity of the test compounds and extracts. In brief, the cells were plated in 96-well plates and incubated for 24 h at 37° C. in 5% CO2 (100 μL/well at a density of 3×10^5 cells/mL). The cells were then treated with different concentrations of extracts/the tested compounds in triplicates. The supernatant was discarded after another 24 h, and cell monolayers were washed three times with sterile 1× PBS. MTT solution was added to each well and then incubated at 37° C. for 4 h. The produced formazan crystals were dissolved with 200 μL of acidified isopropanol (0.04 M HCl in absolute isopropanol=0.073 mL HCL in 50 mL isopropanol). Thereafter, the absorbance of formazan solutions was measured at λmax 540 nm using a multi-well plate reader. The following equation was applied to calculate the percentage of cytotoxicity compared to the untreated cells:
[formula] The produced plot of % cytotoxicity versus sample concentrations was then used to calculate the IC50s. Viral Inhibitory Concentration 50 (IC50) Determination

`C=C1C(=O)O[C@@H]2/C=C(\CO)CC/C=C(\C)C[C@H](OC(=O)C(=C)[C@@H](O)CO)[C@@H]12` [cnicin] gave an IC50 at 24 h greater than 50 µg/mL.
